Earlier results on 1 molecule are cited in patent US10555923B2, “Method for treating paroxysmal nocturnal hemoglobinuria” (ENZYCHEM LIFESCIENCES CORPORATION, priority 2015, dated 2020).

This data set relates to terminal complement activation. The note with it: Cochrane review 2014; cited from earlier work.

B1: eculizumab: monoclonal antibody which blocks terminal complement activation (antibody, chains of the INN, looked up)
heavy: QVQLVQSGAEVKKPGASVKVSCKASGYIFSNYWIQWVRQAPGQGLEWMGEILPGSGSTEYTENFKDRVTMTRDTSTSTVYMELSSLRSEDTAVYYCARYFFGSSPNWYFDVWGQGTLVTVSSASTKGPSVFPLAPCSRSTSESTAALGCLVKDYFPEPVTVSWNSGALTSGVHTFPAVLQSSGLYSLSSVVTVPSSNFGTQTYTCNVDHKPSNTKVDKTVERKCCVECPPCPAPPVAGPSVFLFPPKPKDTLMISRTPEVTCVVVDVSQEDPEVQFNWYVDGVEVHNAKTKPREEQFNSTYRVVSVLTVLHQDWLNGKEYKCKVSNKGLPSSIEKTISKAKGQPREPQVYTLPPSQEEMTKNQVSLTCLVKGFYPSDIAVEWESNGQPENNYKTTPPVLDSDGSFFLYSRLTVDKSRWQEGNVFSCSVMHEALHNHYTQKSLSLSLG
light: DIQMTQSPSSLSASVGDRVTITCGASENIYGALNWYQQKPGKAPKLLIYGATNLADGVPSRFSGSGSGTDFTLTISSLQPEDFATYYCQNVLNTPLTFGQGTKVEIKRTVAAPSVFIFPPSDEQLKSGTASVVCLLNNFYPREAKVQWKVDNALQSGNSQESVTEQDSKDSTYSLSSTLTLSKADYEKHKVYACEVTHQGLSSPVTKSFNRGEC
As for B1, the “need for blood transfusions and quality of life in PNH patients” value was “reduces the need for blood transfusions and improves quality of life”; the “overall mortality or incidence of clots in PNH patients” value is on record as “does not reduce overall mortality or the incidence of clots”.
